Paper doi:10.1101/2022.07.21.500659v1 (bioRxiv, 2022)

Target: T1, human GLP-2r (Homo sapiens, UniProt O95838)
T1 sequence (O95838 1-553): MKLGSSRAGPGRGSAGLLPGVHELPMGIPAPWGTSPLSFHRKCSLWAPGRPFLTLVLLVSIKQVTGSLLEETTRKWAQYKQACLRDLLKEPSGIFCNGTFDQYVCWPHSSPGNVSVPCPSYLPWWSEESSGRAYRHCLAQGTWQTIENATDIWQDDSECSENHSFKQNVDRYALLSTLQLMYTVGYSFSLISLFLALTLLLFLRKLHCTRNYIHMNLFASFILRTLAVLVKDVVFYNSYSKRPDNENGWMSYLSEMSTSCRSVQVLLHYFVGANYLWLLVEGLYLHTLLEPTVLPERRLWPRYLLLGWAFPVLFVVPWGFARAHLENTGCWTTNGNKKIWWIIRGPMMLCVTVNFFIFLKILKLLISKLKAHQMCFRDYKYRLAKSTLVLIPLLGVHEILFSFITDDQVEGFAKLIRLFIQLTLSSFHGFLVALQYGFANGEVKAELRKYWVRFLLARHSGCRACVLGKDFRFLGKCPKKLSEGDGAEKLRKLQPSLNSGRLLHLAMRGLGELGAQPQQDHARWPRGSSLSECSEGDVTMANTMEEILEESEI
Test: Receptor activation, cAMP FRET biosensor
Type: cell-based
Details: FRET ratio of analogue divided by FRET ratio of endogenous ligand

## CC[C@H](C)[C@H](NC(=O)[C@H](CO)NC(=O)[C@H](Cc1ccc(O)cc1)NC(=O)[C@H](CC(=O)O)NC(=O)[C@H](CO)NC(=O)[C@@H](NC(=O)[C@H](Cc1ccccc1)NC(=O)[C@@H](NC(=O)CNC(=O)[C@H](CCC(=O)O)NC(=O)[C@H](C)NC(=O)[C@@H](N)Cc1ccc(O)cc1)[C@@H](C)O)[C@@H](C)CC)C(=O)N[C@@H](C)C(=O)N[C@@H](CCSC)C(=O)N[C@@H](CC(=O)O)C(=O)N[C@@H](CCCCN)C(=O)N[C@H](C(=O)N[C@@H](Cc1c[nH]cn1)C(=O)N[C@@H](CCC(N)=O)C(=O)N[C@@H](CCC(N)=O)C(=O)N[C@@H](CC(=O)O)C(=O)N[C@@H](Cc1ccccc1)C(=O)N[C@H](C(=O)N[C@@H](CC(N)=O)C(=O)N[C@@H](Cc1c[nH]c2ccccc12)C(=O)N[C@@H](CC(C)C)C(=O)N[C@@H](CC(C)C)C(=O)N[C@@H](C)C(=O)N[C@@H](CCC(N)=O)C(=O)N[C@@H](CCCCN)C(=O)O)C(C)C)[C@@H](C)CC [GIP1-30]
  Human GLP-2r FRET ratio fold change vs. GLP-2: 0.63
